Measured values taken from patent publication US20110104713A1, “PRODUCTS AND PROCESSES FOR MODULATING PEPTIDE-PEPTIDE BINDING DOMAIN INTERACTIONS” (priority 2002, published 2011).

Target: T1, PoloBoxtide-optimal, MAGPMQ-S-pT-P-LNGAKK (Artificial Sequence)
T1 chain: MAGPMQSTPLNGAKK
Test: isothermal titration calorimetry, peptide injected into PBD (residues 326-603)
Conditions: remark: other sources report otherwise

Kd: 280 nM
B1: Plk-1 Polo-box domain (PBD), residues 326-603 (protein)
chain: SIAPSSLDPSNRKPLTVLNKGLENPLPERPREKEEPVVRETGEVVDCHLSDMLQQLHSVNASKPSERGLVRQEEAEDPACIPIFWVSKWVDYSDKYGLGYQLCDNSVGVLFNDSTRLILYNDGDSLQYIERDGTESYLTVSSHPNSLMKKITLLKYFRNYMSEHLLKAGANITPREGDELARLPYLRTWFRTRSAIILHLSNGSVQINFFQDHTKLILCPLMAAVTYIDEKRDFRTYRLSLLEEYGCCKELASRLRYARTMVDKLLSSRSASNRLKAS
modifications: here or on the partner: phosphothreonine (pT) at position 8
